Results: patent US20120122830A1, “PREGNENOLONE SULFATE FOR THE TREATMENT OF NEUROLOGIC DISORDERS” (King Faisal Specialist Hospital & Research Centre, priority 2008, published 2012)

System: B104 cells
Assay: PREGS effect on B104 cell viability (dose-response)
Assay type: cell-based, Rat
Conditions: PREGS 0.25 to 40 μM, 24 h, compared to control cells
Experimental: To determine if PREGS was neurotoxic, a dose-response study was conducted in cultured B104 cells. B104 cells were treated with various concentrations of PREGS, ranging from 0.25 to 40 μM, for 24 h.
Rat B104 neuroblastoma is chosen as the cell culture model due to its neuronal phenotype when grown in serum free medium (Schubert et al. Nature 1974; 249: 224-27). B104 cells are routinely grown in flasks of 75 cm^2 with complete culture medium containing Dulbecco's Modified Eagle Medium (DMEM) supplemented with 2 mM L-glutamine, penicillin G (50 U/ml), streptomycin sulfate (50 μg/ml), 10% fetal calf serum, and 5% horse serum. They are sub-cultured every week and the culture medium is changed every three days. Cultures are maintained at 37° C. in a humidified incubator in 90% air and 10% CO2 atmosphere. For the experiments, the cells are plated at the required density, in serum complete medium for 24 H and then the medium is replaced with a serum free one containing or not the desired treatment.

## pregnenolone sulfate [PREGS]
  neurotoxicity / cell viability: not toxic and does not affect the viability; also recorded: not neurotoxic and does not affect the viability

“Also recorded” adds a separate entry of the source.
